The chains behind the UniProt entries cited, without tags or fusion partners.
UniProt P10275, whole entry F877L: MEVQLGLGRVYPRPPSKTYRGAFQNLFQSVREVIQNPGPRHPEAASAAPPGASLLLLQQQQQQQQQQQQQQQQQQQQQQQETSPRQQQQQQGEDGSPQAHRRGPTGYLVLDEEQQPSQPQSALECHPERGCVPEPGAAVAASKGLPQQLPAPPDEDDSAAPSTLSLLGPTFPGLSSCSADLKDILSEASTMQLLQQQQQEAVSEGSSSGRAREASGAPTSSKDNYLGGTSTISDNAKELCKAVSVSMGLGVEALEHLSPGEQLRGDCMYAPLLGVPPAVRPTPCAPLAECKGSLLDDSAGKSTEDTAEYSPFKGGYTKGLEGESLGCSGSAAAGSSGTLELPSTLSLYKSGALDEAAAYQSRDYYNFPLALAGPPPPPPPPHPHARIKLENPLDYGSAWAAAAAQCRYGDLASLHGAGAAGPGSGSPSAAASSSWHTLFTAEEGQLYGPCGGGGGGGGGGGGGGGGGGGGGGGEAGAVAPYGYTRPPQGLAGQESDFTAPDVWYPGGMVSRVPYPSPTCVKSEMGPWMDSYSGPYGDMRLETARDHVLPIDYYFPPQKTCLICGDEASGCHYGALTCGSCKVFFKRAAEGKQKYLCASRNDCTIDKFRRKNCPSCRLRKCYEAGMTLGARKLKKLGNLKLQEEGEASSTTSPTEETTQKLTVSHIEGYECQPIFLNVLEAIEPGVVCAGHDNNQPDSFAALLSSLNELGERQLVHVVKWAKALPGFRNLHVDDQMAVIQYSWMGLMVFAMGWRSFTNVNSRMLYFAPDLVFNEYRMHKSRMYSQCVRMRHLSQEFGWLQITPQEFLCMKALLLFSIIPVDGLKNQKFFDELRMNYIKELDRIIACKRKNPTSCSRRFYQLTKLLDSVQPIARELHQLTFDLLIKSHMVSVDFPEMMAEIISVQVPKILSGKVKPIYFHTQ

According to patent US10981926B2 (Janssen Pharmaceutica NV, priority 2016, dated 2021):

How the values were obtained:
Type in all cases: cell-based
[1] = molecular target: T1, wild-type Androgen Receptor (AR-wt) (Homo sapiens (Human), UniProt P10275); assay: LNCaP-AR-wt ANT reporter assay (antagonist mode); conditions: read-out: LNCaP-AR-wt ANT MAX % Inh
[2] = molecular target: T1, wild-type Androgen Receptor (AR-wt); assay: LNCaP-AR-wt AG reporter assay (agonist mode); conditions: for Emax: read-out: LNCaP-AR-wt AG MAX % Stim
[3] = molecular target: T2, F876L mutant Androgen Receptor (AR-F876L) (Homo sapiens (Human), UniProt P10275, F877L); assay: LNCaP-AR-F876L ANT reporter assay (antagonist mode); conditions: read-out: LNCaP-AR-F876L ANT MAX % Inh
[4] = molecular target: T2, F876L mutant Androgen Receptor (AR-F876L); assay: LNCaP-AR-F876L AG reporter assay (agonist mode); conditions: for Emax: read-out: LNCaP-AR-F876L AG MAX % Stim
[5] = agonist mode, pEC50 = −Log10(EC50 in Molar)
[6] = maximum % stimulation (agonist response) over the tested concentration range

EC50 [2, 5] [µM]	Emax [2, 6] [%]	EC50 [4, 5] [µM]	Emax [4, 6] [%]	SMILES	Emax [1] [%]	Emax [2] [%]	Emax [3] [%]	Emax [4] [%]
				CNC(=S)c1ccc(N2C(=S)N(c3cnc(C#N)c(C(F)(F)F)c3)C(=O)C23CCC3)cc1F [Cpd 11, 4-(7-(6-cyano-5-(trifluoromethyl)pyridin-3-yl)-8-oxo-6-thioxo-5,7-diazaspiro[3.4]octan-5-yl)-2-fluoro-N-methylbenzothioamide]	99.4	2.8	95.3	2
> 15.1	0.2	> 15.1	0.8	N#Cc1ncc(N2C(=O)C3(CCC3)N(c3ccc(Br)cc3)C2=S)cc1C(F)(F)F [Cpd 28, 5-[8-(4-bromophenyl)-5-oxo-7-thioxo-6,8-diazaspiro[3.4]octan-6-yl]-3-(trifluoromethyl)pyridine-2-carbonitrile]				
